Reference: article PMC6209770 (Frontiers in Pharmacology, 2018)

The chains behind the UniProt entries cited, without tags or fusion partners.
UniProt P34969, whole entry: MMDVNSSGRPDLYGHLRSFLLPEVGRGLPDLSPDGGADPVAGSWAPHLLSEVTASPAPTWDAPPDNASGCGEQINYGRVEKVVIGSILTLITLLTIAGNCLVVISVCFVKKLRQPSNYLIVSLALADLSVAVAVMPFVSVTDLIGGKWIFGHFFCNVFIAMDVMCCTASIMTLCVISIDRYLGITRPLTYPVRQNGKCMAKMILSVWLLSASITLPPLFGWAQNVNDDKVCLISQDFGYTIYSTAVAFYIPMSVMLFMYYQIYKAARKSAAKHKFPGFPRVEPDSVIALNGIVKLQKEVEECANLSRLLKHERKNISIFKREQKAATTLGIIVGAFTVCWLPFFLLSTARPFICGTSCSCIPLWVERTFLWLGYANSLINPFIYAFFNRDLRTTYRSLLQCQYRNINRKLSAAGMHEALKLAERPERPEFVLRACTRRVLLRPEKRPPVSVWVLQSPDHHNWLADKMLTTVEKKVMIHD

Target: 5-HT7 receptor (Homo sapiens, UniProt P34969)
Test: Functional assay, intrinsic activity at 5-HT7
Format: cell-based

- Agonist mode Emax % (5-HT7, agonist mode): 4%
- Antagonist mode Emax % (5-HT7, antagonist mode): 8%
SMILES: CC1CCN(CC[C@H]2CCCN2S(=O)(=O)c2cccc(O)c2)CC1 [SB269970, reference compound]
